Measurements from publication PMC12678337, “EAR-20 peptide, a novel NMDA receptor positive allosteric modulator” (Frontiers in Pharmacology, 2025).

Sequences of proteins named here, by UniProt entry; tags and fusion partners are left off. Residues count along the entry.
UniProt Q00960, 27-1482: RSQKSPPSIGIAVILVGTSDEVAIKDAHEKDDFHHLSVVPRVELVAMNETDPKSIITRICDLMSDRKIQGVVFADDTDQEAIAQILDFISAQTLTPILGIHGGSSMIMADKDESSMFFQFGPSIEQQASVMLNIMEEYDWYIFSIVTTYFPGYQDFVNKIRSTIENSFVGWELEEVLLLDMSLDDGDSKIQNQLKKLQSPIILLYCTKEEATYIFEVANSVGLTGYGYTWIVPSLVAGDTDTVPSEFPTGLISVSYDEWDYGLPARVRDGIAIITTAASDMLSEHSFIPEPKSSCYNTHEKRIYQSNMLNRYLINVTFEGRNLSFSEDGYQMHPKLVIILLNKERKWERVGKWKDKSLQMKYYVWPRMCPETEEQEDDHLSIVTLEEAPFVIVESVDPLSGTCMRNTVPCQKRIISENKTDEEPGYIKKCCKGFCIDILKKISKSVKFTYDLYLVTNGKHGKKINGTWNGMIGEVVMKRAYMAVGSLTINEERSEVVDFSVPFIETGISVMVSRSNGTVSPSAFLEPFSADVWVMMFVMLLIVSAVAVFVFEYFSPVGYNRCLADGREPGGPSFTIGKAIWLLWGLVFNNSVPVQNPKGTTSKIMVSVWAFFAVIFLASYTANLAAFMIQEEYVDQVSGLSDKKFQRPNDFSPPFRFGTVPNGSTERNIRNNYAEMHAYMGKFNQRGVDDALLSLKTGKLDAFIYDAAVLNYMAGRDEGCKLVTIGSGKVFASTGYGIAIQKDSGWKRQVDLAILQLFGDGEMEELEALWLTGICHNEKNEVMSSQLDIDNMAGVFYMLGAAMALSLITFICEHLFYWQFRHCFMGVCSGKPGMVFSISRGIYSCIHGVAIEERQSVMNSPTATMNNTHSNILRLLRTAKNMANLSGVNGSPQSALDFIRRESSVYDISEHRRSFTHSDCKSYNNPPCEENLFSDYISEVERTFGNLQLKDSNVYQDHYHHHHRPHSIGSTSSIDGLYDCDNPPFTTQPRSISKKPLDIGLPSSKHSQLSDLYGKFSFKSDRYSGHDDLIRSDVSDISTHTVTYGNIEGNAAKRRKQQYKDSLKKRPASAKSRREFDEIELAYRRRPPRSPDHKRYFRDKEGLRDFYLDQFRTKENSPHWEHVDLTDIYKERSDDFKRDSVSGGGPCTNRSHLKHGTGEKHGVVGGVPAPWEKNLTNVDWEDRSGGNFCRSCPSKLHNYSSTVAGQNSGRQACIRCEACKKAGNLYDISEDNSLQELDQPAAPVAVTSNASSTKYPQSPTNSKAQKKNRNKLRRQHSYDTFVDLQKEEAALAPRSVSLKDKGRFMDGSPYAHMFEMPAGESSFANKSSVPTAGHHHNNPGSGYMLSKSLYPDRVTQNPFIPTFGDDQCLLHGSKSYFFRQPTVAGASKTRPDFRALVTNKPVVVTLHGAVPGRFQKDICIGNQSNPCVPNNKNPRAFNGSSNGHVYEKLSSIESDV

Biological target: T1, GluN1-GluN2B (Rattus norvegicus, UniProt P35439+Q00960)
T1 construct: GFP (N); expressed in transfected cells; host or cells: HEK-293T
Assay type: cell-based

## NCC(=O)O [glycine, reference compound]
  response to glycine alone: did not result in any measurable response
